Here are results for 1 compound from patent US20090192095A1 (priority 2008, published 2009).

The conditions of the data set: HPLC.

Molecules are shown by their SMILES.

In the case of `CO[C@]12CC[C@@]3(C[C@@H]1[C@@](C)(O)C(C)(C)C)[C@H]1Cc4ccc(OC(=O)NC(C(=O)O)C(C)C)c5c4[C@@]3(CCN1CC1CC1)[C@H]2O5` (stereo partly drawn), the “Distilled water (pH 5.9): % remaining after 2 h/20° C.” value (distilled water pH 5.9, 2 h, 20° C.) was 100%. For the same compound, where the note is “simulated gastric fluid pH 1.1, 2 h, 37° C.”, the “Simulated gastric fluid (pH 1.1): % remaining after 2 h/37° C.” value is 100%. Further, the “Simulated intestinal fluid (pH 6.8): % remaining after 2 h/37° C.” value (simulated intestinal fluid pH 6.8, 2 h, 37° C.) is reported as 98%.
